{"source": "patent US10350239B2", "about": "“Pharmaceutical composition for treating cancer comprising trypsinogen and/or chymotrypsinogen and an active agent selected from a selenium compound, a vanilloid compound and a cytoplasmic glycolysis reduction agent” (Propanc Pty Ltd, priority 2009, dated 2019)", "origin": "cited, not measured here", "conditions": "background statement; cited from earlier work"}
{"substance": "sodium selenite/selenate", "values": [{"measurement": "toxic level (inorganic forms of selenium)", "result": "about 1500 micrograms"}]}
